The values that follow are results of earlier work, collected in patent publication US20250161335A1, “Drug and Method for Nucleoside (Acid) Drug Therapy of Limiting Chronic Hepatitis B” (Shanghai Hep Pharmaceutical Co., Ltd., priority 2022, published 2025).

Where two headings read alike, the source gives them in different places.

This data set has as its system HBV.

In the case of “PegIFNα-2a: pegylated interferon α-2a (40 KD)”, the “proportion of patients with HBV DNA <2×10^4 copies/ml” value is 43% (HBeAg-negative patients (60% Asians), 48 weeks treatment, 24 weeks follow-up after withdrawal) and 42% (HBeAg-negative patients, value in brackets 'after followed up for 24 weeks'). The HBeAg seroconversion rate (HBeAg-positive chronic hepatitis B patients (87% Asians), 48 weeks treatment, 24 weeks follow-up after withdrawal) is given as 32%.
